Experimental data published in ChEMBL document CHEMBL5543107, “Discovery of a novel class of reversible monoacylglycerol lipase inhibitors for potential treatment of depression” (Eur J Med Chem, 2024).

Chains of the proteins cited; added tags and fusions are not shown.
UniProt P34972, whole entry: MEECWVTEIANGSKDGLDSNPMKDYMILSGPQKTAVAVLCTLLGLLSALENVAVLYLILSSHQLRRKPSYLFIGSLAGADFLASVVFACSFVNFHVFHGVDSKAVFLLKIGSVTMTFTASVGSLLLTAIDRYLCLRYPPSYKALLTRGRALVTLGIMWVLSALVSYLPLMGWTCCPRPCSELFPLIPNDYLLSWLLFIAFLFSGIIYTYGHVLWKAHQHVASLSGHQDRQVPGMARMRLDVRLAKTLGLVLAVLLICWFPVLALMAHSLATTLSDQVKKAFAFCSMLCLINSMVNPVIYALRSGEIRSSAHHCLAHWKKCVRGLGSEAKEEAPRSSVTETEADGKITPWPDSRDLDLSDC
UniProt P21554, whole entry: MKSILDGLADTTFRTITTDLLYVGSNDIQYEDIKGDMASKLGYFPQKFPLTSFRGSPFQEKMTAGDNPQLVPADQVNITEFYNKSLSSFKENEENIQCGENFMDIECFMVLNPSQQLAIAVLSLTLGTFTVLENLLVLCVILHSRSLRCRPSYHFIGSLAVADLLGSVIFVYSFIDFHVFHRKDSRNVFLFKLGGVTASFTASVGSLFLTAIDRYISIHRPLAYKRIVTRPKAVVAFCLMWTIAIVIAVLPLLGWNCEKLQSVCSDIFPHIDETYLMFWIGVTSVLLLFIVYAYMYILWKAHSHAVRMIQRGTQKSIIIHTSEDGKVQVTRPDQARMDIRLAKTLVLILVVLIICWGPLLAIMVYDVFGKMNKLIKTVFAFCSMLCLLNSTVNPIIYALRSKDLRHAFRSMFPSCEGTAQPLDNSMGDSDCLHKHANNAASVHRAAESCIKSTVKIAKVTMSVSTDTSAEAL
UniProt Q99685, whole entry: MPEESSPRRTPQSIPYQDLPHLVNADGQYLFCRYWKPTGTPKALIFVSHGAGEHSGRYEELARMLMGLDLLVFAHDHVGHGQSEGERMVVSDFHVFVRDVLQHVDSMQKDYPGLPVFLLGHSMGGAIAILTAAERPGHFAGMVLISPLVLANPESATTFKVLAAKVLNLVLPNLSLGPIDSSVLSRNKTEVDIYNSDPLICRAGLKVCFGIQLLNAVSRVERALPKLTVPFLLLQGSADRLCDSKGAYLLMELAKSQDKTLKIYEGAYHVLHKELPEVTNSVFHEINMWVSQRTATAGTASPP

Tests used:
[1] = biological target: T1, Fatty acid 2-hydroxylase (Homo sapiens) (UniProt Q7L5A8); experiment: Inhibition of recombinant human FAAH at 10 uM preincubated for 5 mins followed by substrate addition for 5 mins by fluorometer assay relative to control; details: time 10.0 min
T1 sequence (whole entry): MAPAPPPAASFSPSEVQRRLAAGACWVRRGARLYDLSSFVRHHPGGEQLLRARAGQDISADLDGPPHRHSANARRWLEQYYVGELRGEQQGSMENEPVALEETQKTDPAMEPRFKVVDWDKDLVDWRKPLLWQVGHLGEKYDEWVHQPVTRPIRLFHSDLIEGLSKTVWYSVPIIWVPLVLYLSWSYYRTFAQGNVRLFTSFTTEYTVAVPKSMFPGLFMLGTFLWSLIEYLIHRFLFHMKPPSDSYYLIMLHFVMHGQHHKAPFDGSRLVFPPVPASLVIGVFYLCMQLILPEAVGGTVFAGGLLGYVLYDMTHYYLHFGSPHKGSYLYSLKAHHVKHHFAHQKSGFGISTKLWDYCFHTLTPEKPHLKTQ

[2] = biological target: Cannabinoid receptor 2 (Homo sapiens) (UniProt P34972); experiment: Agonist activity at CB2R (unknown origin) at 10 uM relative to control; assay type: functional
[3] = biological target: Cannabinoid receptor 1 (Homo sapiens) (UniProt P21554); experiment: Agonist activity at CB1R (unknown origin) at 10 uM relative to control; assay type: functional; details: filed as agonist
[4] = biological target: Cannabinoid receptor 1 (Homo sapiens) (UniProt P21554); experiment: Agonist activity at CB1R (unknown origin) at 1 uM relative to control; assay type: functional
Monoglyceride lipase = Monoglyceride lipase (Homo sapiens, UniProt Q99685); experiment: Inhibition of recombinant human MAGL at 4.4 uM preincubated for 10 mins followed by substrate addition and measured every 10 sec for 10 mins relative to control; details: time 20.0 min

Row | Compound | inhibition [1] [%] | Activity [2] [%] | Activity [3] [%] | Activity [4] [%] | inhibition (Monoglyceride lipase) [%]
1 | O=C(c1ccc2ccc(=O)[nH]c2c1)N1CCN(c2ccc(-c3ccc(Cl)cc3)cn2)CC1 | 23.6 | 6.3 | 48.3 |  | 
2 | O=C(c1ccc2ccc(=O)[nH]c2c1)N1CCN(c2ccc(-c3ccc(Cl)cc3F)cn2)CC1 | 31.1 | 14.8 |  | 31.7 | 
3 | O=C(Oc1ccc([N+](=O)[O-])cc1)N1CCN(Cc2cccc(Oc3ccccc3)c2)CC1 |  |  |  |  | 89
